Reference: US8119773B2, “Compositions and methods for facilitating heme-iron export from cells” (University of Washington, priority 2007, dated 2012)

Experiments:
human FLVCR = biological target: T1, human FLVCR (Homo sapiens, UniProt Q9Y5Y0); assay: ZnMP export from NRK cells engineered to express human FLVCR, with carrier protein; assay type: cell-based; conditions: cells loaded with ZnMP 30 min, then 37° C. for 90 min
T1 construct: expressed in transfected cells; host or cells: NRK (rat kidney) cells engineered to express human FLVCR
T1 sequence (Q9Y5Y0 1-555): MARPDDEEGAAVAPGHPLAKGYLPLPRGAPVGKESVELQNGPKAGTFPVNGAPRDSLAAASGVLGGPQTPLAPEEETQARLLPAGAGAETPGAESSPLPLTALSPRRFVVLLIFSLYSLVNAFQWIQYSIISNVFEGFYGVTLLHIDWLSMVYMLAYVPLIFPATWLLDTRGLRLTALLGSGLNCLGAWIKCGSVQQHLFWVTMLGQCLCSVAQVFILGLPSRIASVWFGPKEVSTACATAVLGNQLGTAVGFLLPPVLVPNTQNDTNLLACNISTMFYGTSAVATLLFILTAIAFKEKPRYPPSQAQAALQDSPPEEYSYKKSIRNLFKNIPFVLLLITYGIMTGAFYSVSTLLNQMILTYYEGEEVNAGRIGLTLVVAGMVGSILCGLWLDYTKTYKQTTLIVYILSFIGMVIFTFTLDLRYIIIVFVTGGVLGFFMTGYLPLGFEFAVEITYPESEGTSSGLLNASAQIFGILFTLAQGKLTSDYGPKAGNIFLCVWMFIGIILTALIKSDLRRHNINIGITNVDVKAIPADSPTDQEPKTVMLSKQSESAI
Description: ZnMP and ^55Fe-hemin uptake and washout studies. These studies were performed as described previously (S9).
FLVCR is a heme export protein that is required for proerythroblast survival (1), macrophage heme-iron recycling, and systemic iron homeostasis (2). However, the mechanism and regulation of export through this and related major facilitator superfamily (MFS) members (e.g. OxIT, LacY, GlpT) is unknown. To gain insights into the structure and function of FLVCR, we first studied the export of zinc mesoporphyrin (ZnMP), a fluorescent heme analog that traffics similarly to heme and also blocks heme oxygenase activity. NRK (rat) cells engineered to express human FLVCR were loaded with ZnMP for 30 min, then incubated at 37° C. for 90 min with no carrier protein, albumin, or hemopexin (Hpx). In the absence of carrier protein, no export was seen. […] As Kds are ˜10 nM and <1 pM, for albumin and Hpx, respectively, our data argue that the rate and efficiency of heme export depends on the avidity of heme binding. […] Based upon known MFS member structures (3), these histidines are optimally located to coordinate the heme-iron exiting the channel while the adjacent transmembrane regions contain several aromatic residues capable of lining a solvent accessible heme pocket. These histidine residues are conserved in human, cat, and mouse FLVCR, but are not present in closely related paralogs (4), which lack heme export function. We hypothesize that they act as a temporary docking site for heme after it exits through a transport channel and prior to being picked up by Hpx in the circulation, and thus as a structural regulator of export efficiency, or have another physiological function. We are currently using site-directed mutagenesis to generate mutant FLVCR and will test export function in transduced NRK cells and in vivo in mice. […]

[1] = heme binding; cited from earlier work

ZnMP export (human FLVCR; 1.151 μM albumin): almost absent
ZnMP export (human FLVCR; 15.15 μM albumin): less extensive
ZnMP export (human FLVCR; 151.5 μM (1%) albumin): near complete
Substance: albumin
Kd [1]: ~10 nM
